Experimental data as given in US8207144B2, “Sodium salt of disaccharide compound, production method and use of same” (Eisai R & D Management Co., Ltd., priority 2006, dated 2012).

Experiment: Storage stability test (formation of impurities A, B and C by HPLC)
Format: physicochemical
Settings: storage at 25° C., converted to monthly rate from area percent
Method: The salts of Examples 2 to 4 and Comparative Example 1 were placed in a screw-cap glass bottle and stored for 30 days at 25° C. followed by determination of formation rates of impurities A, B and C as described below.
Each salt of Examples 2 to 4 and Comparative Example 1 was dissolved in methanol to prepare a solution having a concentration of 5 mg/mL. When HPLC analysis was carried out under the conditions indicated in Table 1 below on each solution and a blank solution (methanol only), three types of decomposition products were confirmed. Consequently, formation rates (converted to monthly rates) were calculated for each of the three types of decomposition products (impurities A, B and C) using the area percent.

| SMILES | Impurity A Formation rate [%/month] | Impurity B Formation rate [%/month] | Impurity C Formation rate [%/month] | Impurity A Formation rate (listed as 3.93 Na Salt) [%/month] | Impurity B Formation rate (listed as 3.93 Na Salt) [%/month] | Impurity C Formation rate (listed as 3.93 Na Salt) [%/month] | Impurity A Formation rate (listed as 3.67 Na Salt) [%/month] | Impurity B Formation rate (listed as 3.67 Na Salt) [%/month] | Impurity C Formation rate (listed as 3.67 Na Salt) [%/month] | Impurity A Formation rate (listed as 2.84 Na Salt) [%/month] | Impurity B Formation rate (listed as 2.84 Na Salt) [%/month] |
| --- | --- | --- | --- | --- | --- | --- | --- | --- | --- | --- | --- |
| CCCCCC/C=C\CCCCCCCCCC(=O)N[C@H]1[C@H](OC[C@H]2O[C@H](OP(=O)([O-])[O-])[C@H](NC(=O)CC(=O)CCCCCCCCCCC)[C@@H](OCCCCCCCCCC)[C@@H]2O)O[C@H](COC)[C@@H](OP(=O)([O-])[O-])[C@@H]1OCC[C@@H](CCCCCCC)OC.[Na+].[Na+].[Na+].[Na+] [Example 4] | 0.363 | 1.455 | 0.063 | 0.363 | 1.455 | 0.063 | – | – | – | – | – |
| CCCCCC/C=C\CCCCCCCCCC(=O)N[C@H]1[C@H](OC[C@H]2O[C@H](OP(=O)([O-])[O-])[C@H](NC(=O)CC(=O)CCCCCCCCCCC)[C@@H](OCCCCCCCCCC)[C@@H]2O)O[C@H](COC)[C@@H](OP(=O)([O-])[O-])[C@@H]1OCC[C@@H](CCCCCCC)OC.[Na+].[Na+].[Na+].[Na+] [Example 3] | 0.072 | 0.267 | 0.072 | – | – | – | 0.072 | 0.267 | 0.072 | – | – |
| CCCCCC/C=C\CCCCCCCCCC(=O)NC1C(OCC2OC(OP(=O)([O-])[O-])C(NC(=O)CC(=O)CCCCCCCCCCC)C(OCCCCCCCCCC)C2O)OC(COC)C(OP(=O)([O-])[O-])C1OCCC(CCCCCCC)OC.[Na+].[Na+].[Na+].[Na+] (centres unmarked) [Comparative Example 1, reference compound] | 0.729 | 3.117 | 0.033 | – | – | – | – | – | – | – | – |
| CCCCCC/C=C\CCCCCCCCCC(=O)N[C@H]1[C@H](OC[C@H]2O[C@H](OP(=O)(O)O)[C@H](NC(=O)CC(=O)CCCCCCCCCCC)[C@@H](OCCCCCCCCCC)[C@@H]2O)O[C@H](COC)[C@@H](OP(=O)(O)O)[C@@H]1OCC[C@@H](CCCCCCC)OC [Example 2] | 0.000 | 0.000 | 0.282 | – | – | – | – | – | – | 0.00 | 0.00 |
